# Cyclic peptide permeability, from CycPeptMPDB

Values of Furukawa et al. 2016, doi:10.1021/acs.jmedchem.6b01246, as listed in CycPeptMPDB.

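Conditions beyond the assay type are not listed; see the original paper. The list need not hold all peptides of the study. Peptides that the database sets to -10, its floor, are left out.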

PAMPA is the parallel artificial membrane permeability assay, which has no cells and reads passive diffusion.
Permeability is given as log10 of P in cm/s; higher (less negative) is more permeable.

{"smiles": "CCCC[C@@H]1NC(=O)[C@H](CC(C)C)N(C)C(=O)CN(Cc2ccccc2)C(=O)[C@H](Cc2ccccc2)NC(=O)CN(CC)C(=O)[C@H]2CCCN2C1=O", "PAMPA (log10 cm/s)": "-5.16"}
{"smiles": "CCCC[C@@H]1NC(=O)[C@H](CC(C)C)N(C)C(=O)CN(CCCc2cnn(C)c2)C(=O)[C@H](Cc2ccccc2)NC(=O)CN(Cc2ccccc2Cn2cccn2)C(=O)[C@H]2CCCN2C1=O", "PAMPA (log10 cm/s)": "-5.68"}
{"smiles": "CCCC[C@@H]1NC(=O)[C@H](CC(C)C)N(C)C(=O)CN(CCCN2CCCC2=O)C(=O)[C@H](C)NC(=O)CN(CC)C(=O)[C@H]2CCCN2C1=O", "PAMPA (log10 cm/s)": "-8.28"}
{"smiles": "CCCC[C@@H]1NC(=O)[C@H](CC(C)C)N(C)C(=O)CN(CC2CCOCC2)C(=O)[C@H](C)NC(=O)CN(CCC)C(=O)[C@H]2CCCN2C1=O", "PAMPA (log10 cm/s)": "-6.69"}
{"smiles": "CCCC[C@@H]1NC(=O)[C@H](CC(C)C)N(C)C(=O)CN(CCCc2cnn(C)c2)C(=O)[C@H](Cc2ccc3ccccc3c2)NC(=O)CN(Cc2ccccc2Cn2cccn2)C(=O)[C@H]2CCCN2C1=O", "PAMPA (log10 cm/s)": "-6.58"}
{"smiles": "CCCC[C@@H]1NC(=O)[C@H](CC(C)C)N(C)C(=O)CN(CCCc2ccccc2)C(=O)[C@H](CC(C)C)NC(=O)CN(CC(C)C)C(=O)[C@H]2CCCN2C1=O", "PAMPA (log10 cm/s)": "-6.02"}
{"smiles": "CCCC[C@@H]1NC(=O)[C@H](CC(C)C)N(C)C(=O)CN(Cc2ccccc2)C(=O)[C@H](Cc2ccc3ccccc3c2)NC(=O)CN(CCCOC(C)C)C(=O)[C@H]2CCCN2C1=O", "PAMPA (log10 cm/s)": "-6.55"}
{"smiles": "CCCC[C@@H]1NC(=O)[C@H](CC(C)C)N(C)C(=O)CN(Cc2ccccc2)C(=O)[C@H](C)NC(=O)CN(CCCOC(C)C)C(=O)[C@H]2CCCN2C1=O", "PAMPA (log10 cm/s)": "-4.97"}
{"smiles": "CCCC[C@@H]1NC(=O)[C@H](CC(C)C)N(C)C(=O)CN(CC2CCOCC2)C(=O)[C@H](C)NC(=O)CN(Cc2ccccc2Cn2cccn2)C(=O)[C@H]2CCCN2C1=O", "PAMPA (log10 cm/s)": "-6.67"}
{"smiles": "CCCC[C@@H]1NC(=O)[C@H](CC(C)C)N(C)C(=O)CN(Cc2ccccc2)C(=O)[C@H](C)NC(=O)CN(CCCCc2ccccc2)C(=O)[C@H]2CCCN2C1=O", "PAMPA (log10 cm/s)": "-5.77"}
{"smiles": "CCCC[C@@H]1NC(=O)[C@H](CC(C)C)N(C)C(=O)CN(CCCc2cnn(C)c2)C(=O)[C@H](Cc2ccccc2)NC(=O)CN(Cc2ccc3c(c2)OCO3)C(=O)[C@H]2CCCN2C1=O", "PAMPA (log10 cm/s)": "-5.73"}
{"smiles": "CCCC[C@@H]1NC(=O)[C@H](CC(C)C)N(C)C(=O)CN(CC2CCOCC2)C(=O)[C@H](CC(C)C)NC(=O)CN(Cc2ccccc2Cn2cccn2)C(=O)[C@H]2CCCN2C1=O", "PAMPA (log10 cm/s)": "-5.38"}
{"smiles": "CCCC[C@@H]1NC(=O)[C@H](CC(C)C)N(C)C(=O)CN(CCOC)C(=O)[C@H](CC(C)C)NC(=O)CN(CCN2CCOCC2)C(=O)[C@H]2CCCN2C1=O", "PAMPA (log10 cm/s)": "-6.64"}
{"smiles": "CCCC[C@@H]1NC(=O)[C@H](CC(C)C)N(C)C(=O)CN(CCCc2ccccc2)C(=O)[C@H](CC(C)C)NC(=O)CN(CCN2CCOCC2)C(=O)[C@H]2CCCN2C1=O", "PAMPA (log10 cm/s)": "-5.31"}